Values of other authors in patent publication US5480969A, “Antagonists of LHRH” (The Administrators of the Tulane Educational Fund, priority 1992, dated 1996).

Legend:
rat mast cells = conditions: Table V; cited from earlier work
rats = conditions: Table V; cited from earlier work

[N-Ac-D-2-Nal^1, D-pClPhe^2 D-3-Pal^3, D-Cit^6, D-Ala^10 ] LHRH [SB-75]
Histamine release ED50 (rat mast cells): 1.5 µg/mL
column 1.5 (AOA, head not given) (rats): 75
